Test results: ChEMBL document CHEMBL5260848, “Recent advancements in the development of bioactive pyrazoline derivatives” (Eur J Med Chem, 2020)

Sequences of proteins named here, by UniProt entry; tags and fusion partners are left off. A change or cut given only in a name is not applied to a line headed by its entry.
UniProt P00915: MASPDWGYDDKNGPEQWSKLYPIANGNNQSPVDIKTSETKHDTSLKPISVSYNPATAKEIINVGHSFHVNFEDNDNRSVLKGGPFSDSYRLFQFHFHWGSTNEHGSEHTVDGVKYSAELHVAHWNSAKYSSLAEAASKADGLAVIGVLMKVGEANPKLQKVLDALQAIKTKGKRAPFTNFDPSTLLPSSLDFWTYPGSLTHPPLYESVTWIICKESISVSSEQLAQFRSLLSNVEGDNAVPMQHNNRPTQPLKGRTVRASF

Biological target: Carbonic anhydrase 1 (Homo sapiens, UniProt P00915)

pKi: 8.29
Compound: COc1cc(/C=C/C(=O)c2ccc(N)cc2)cc(OC)c1OC

pKi: −log10 of the molar value.
